Experimental data reported in patent US20060135458A1, “Antiviral oligonucleotides” (priority 2002, published 2006).

Test system: Hep2 cells

Question: What does the source list for `NC(=O)c1ncn([C@@H]2O[C@H](CO)[C@@H](O)[C@H]2O)n1` [Ribavirin]?
Answer: toxicity in Hep2 cells: significantly toxic; therapeutic index (human, 7 days): 2.08
